# Reference: US5149688A, “Methods, compounds, and compositions for immunosuppression” (priority 1990, dated 1992)
# Key:
# adjuvant arthritis (AA) [1] = assay: Long term suppression of AA using combined SA and MTX treatment (Example 6); assay type: in vivo, male Lewis rats; details: SA 300 mg/kg/day IP or MTX 0.9 mg/kg/week IP, day 5 to 15
# Description: On day 0, three groups of 10 male Lewis rats were injected with M.Tb in oil suspension, as in previous examples. […] The animals were evaluated for arthritis development.
# adjuvant arthritis (AA) [2] = assay: Combined SA and MTX treatment of AA (Example 5); assay type: in vivo, male Lewis rats; details: 4.8 mg/kg/week IP; FIG. 11
# Text: AA was induced in male Lewis rats as in the previous examples. On day 5, subcutaneous pumps were placed in all the rats.
# adjuvant arthritis (AA) [3] = assay: Comparative efficacy of MTX and SA in suppressing onset of AA (Example 3); set-up: species or system Lewis rats; details: rat, in vivo
# [4] = test system: established adjuvant arthritis (AA); assay: Comparative efficacy of SA and MTX in the treatment of established arthritis (Example 4); assay type: in vivo, male Lewis rats
# Description: Three groups of 15 male Lewis rats were injected with M.Tb on day 0 in the left hindpaw. […] On day 16, subcutaneous pumps were placed in the SA and control groups. SA was administered at 300 mg/kg/day by CI. The control group received 2.5M NaCl. […] Treatment was continued to day 30.
compound,measurement,setting,value
"CN(Cc1cnc2nc(N)nc(N)c2n1)c1ccc(C(=O)N[C@@H](CCC(=O)O)C(=O)O)cc1 [MTX, Methotrexate]","suppression of AA, single drugs IP",adjuvant arthritis (AA) [1],AA was not suppressed
same,"suppression of AA (right footpad swelling), MTX alone",adjuvant arthritis (AA) [2],Maximal efficacy
same,footpad swelling suppression,adjuvant arthritis (AA) [3],significant suppression
same,"right footpad diameter, progression from day 23 to 63","[4]; SA 300 mg/kg/day CI or MTX 2.4 mg/kg/week IP, day 16 to 30, FIG. 10",further progression of the right footpad swelling
same,mean right hindpaw thickness,"[4]; day 23, SA 300 mg/kg/day CI or MTX 2.4 mg/kg/week IP from day 16, control 321, normal about 170 U",324 U
